Experimental data as given in patent US20180080942A1.

Target: N-terminal regulatory region of aurora kinase A, residues 1-131 (NAurA) (Homo sapiens (Human)) (UniProt O14965)
Experiment: 13C-detected CON NMR, molar ratio apo-CaM:NAurA 0.18:1

Substance: calcium-free chicken Calmodulin (apo-CaM) (from UniProt P62149 2-149)
- decrease in CON peak height, majority of remaining residues within the 54-68 segment of NAurA: > 50%
